Source: patent publication US20140128385A1 (NOVARTIS AG, priority 2011, published 2014)
Counter-ions that a name gives are not always drawn. Like-named read-outs stand apart in the source and are kept apart here.

Target: T1, BACE-2 (Homo sapiens, UniProt Q9Y5Z0)
T1 construct: Recombinant BACE-2 (extracellular domain, expressed in baculovirus and purified using standard methods); made in house
T1 sequence (Q9Y5Z0 63-473 limits assumed): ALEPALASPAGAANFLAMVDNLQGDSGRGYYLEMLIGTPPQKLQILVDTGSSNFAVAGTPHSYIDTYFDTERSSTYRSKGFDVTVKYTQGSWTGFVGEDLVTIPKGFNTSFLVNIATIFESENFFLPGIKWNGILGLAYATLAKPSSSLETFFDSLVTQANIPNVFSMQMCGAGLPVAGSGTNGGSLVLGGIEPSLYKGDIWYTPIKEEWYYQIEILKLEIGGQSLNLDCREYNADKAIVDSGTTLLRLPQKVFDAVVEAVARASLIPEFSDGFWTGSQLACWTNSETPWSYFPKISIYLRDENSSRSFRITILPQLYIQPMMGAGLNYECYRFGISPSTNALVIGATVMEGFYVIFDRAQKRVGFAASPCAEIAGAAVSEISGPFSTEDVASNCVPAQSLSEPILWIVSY
Assay: assay for inhibition of BACE-2
Assay type: biochemical

Row | SMILES | IC50 [nM] | IC50 (read-out: BACE-2 IC50) [nM]
1 | C[C@@]1(c2cc(NC(=O)c3ncc(OC(F)F)cc3Cl)ccc2F)CO[C@@](C)(C(F)(F)F)C(N)=N1 [Example 233, 3-Chloro-5-difluoromethoxy-pyridine-2-carboxylic acid [3-((3R,6R)-5-amino-3,6-dimethyl-6-trifluoromethyl-3,6-dihydro-2H-[1,4]oxazin-3-yl)-4-fluoro-phenyl]-amide hydrochloride] | 21 | 
2 | C[C@@]1(c2cc(NC(=O)c3ncc(C#N)cc3N)ccc2F)CO[C@@](C)(C(F)(F)F)C(N)=N1 [Example 240, 3-Amino-5-cyano-pyridine-2-carboxylic acid [3-((3R,6R)-5-amino-3,6-dimethyl-6-trifluoromethyl-3,6-dihydro-2H-[1,4]oxazin-3-yl)-4-fluoro-phenyl]-amide] | 5 | 
3 | C[C@@]1(c2cccc(NC(=O)c3ccc(C#N)cn3)n2)CO[C@@](C)(C(F)(F)F)C(N)=N1 [Example 266, 5-Cyano-pyridine-2-carboxylic acid [6-((3R,6R)-5-amino-3,6-dimethyl-6-trifluoromethyl-3,6-dihydro-2H-[1,4]oxazin-3-yl)-pyridin-2-yl]-amide] |  | 101
